Source: PubChem (ICCB-Longwood Screening Facility, Harvard Medical School)
This is a sample that favours compounds with a hit; in the whole collection about 0.43% have one here.
GIV-Gai inh = blocks GIV peptide binding to rat Galpha-i3. P08753. Galpha-i3/FITC-GIV peptide fluorescence polarization, 90 min; stronger effect = lower value; scaled: aluminum fluoride 0%, vehicle 100%. percent of control (FP), % (concentration not given with the values). hit rate 0.42% among 210,000. AID 1224905;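 active means replicate mean at 85% of control or lower, very high polarization wells dropped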;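 further: wells of about 15 µL received 100 nL stock; the first replicate is given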
HCMV NEC inh = inhibitors of HCMV UL50-UL53 interaction, biochemical, HTRF | normalized percent inhibition | 0.15% of 190,000 active | inhibition, % (concentration not given with the values) | HCMV UL50-UL53 nuclear egress complex (human cytomegalovirus); in the data active means inhibition above about 27%, passing the limit was not always enough
GIV Gai FP conf = inhibitors of GIV peptide binding to Galpha-i3, confirmation, biochemical, fluorescence polarization, FITC-GIV peptide, rat Galphai3; hits give low values; fluorescence polarization, mP at 100 µM; shares compounds with GIV-Gai inh; 38% of 580 active; AID 1259350, 2017;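 active means inhibition score of 15 or more, meaning 100 minus mean polarization as percent of control over three replicates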;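 further: lower mP means peptide displaced from Galphai3 so more inhibition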
GIV-Gai AS conf = inhibitors of GIV binding to Galpha-i3, confirmation, orthogonal assay for GIV-Galpha-i inhibitor project, biochemical, AlphaScreen, His-GIV, GST-Galphai3; AlphaScreen counts at 100 µM; AID 1259351, 2017; shares compounds with GIV-Gai inh; purified proteins, 90 min; hits give low values; 39% of 580 active;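 active means inhibition score at or above a set limit, where the score is 100 minus the three-replicate mean percent of control signal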
* = called active by the depositor; / = not tested or not shown.

Labels used below: A = GIV-Gai inh; B = HCMV NEC inh; C = GIV Gai FP conf; D = GIV-Gai AS conf
1	C=CCSc1ncc(Cl)c(C(=O)Nc2sc3c(c2C(=O)OC)CCCC3)n1
  A = 85*; B = -18; C = 62; D = 43255
2	COc1ccc(-n2c3nc(=O)[nH]c(=O)c-3cc3ccccc32)cc1
  A = 71*; B = /; C = 64; D = 8986*
3	Cc1ccc(-n2c3nc(=O)[nH]c(=O)c-3cc3ccccc32)cc1Cl
  A = 105; B = /; C = /; D = /
4	Cc1ccc(S(=O)(=O)c2c(O)c3ccc(C(=O)NCc4ccccc4)cc3[nH]c2=O)cc1
  A = 107; B = -14; C = /; D = /
5	O=C1C(c2ccnc3ccccc23)=C(O)c2ccccc21
  A = 64*; B = -40; C = 76; D = 34509
6	O=C1C(=O)c2ccccc2C(O)=C1c1ccccc1F
  A = 96; B = -109; C = /; D = /
7	COc1cccc(C2C3=C(NCCN=C3c3ccccc3)C(=O)N2c2ccccc2)c1 (stereo not given)
  A = 104; B = /; C = /; D = /
8	COC(=O)c1c(F)c(F)c(Oc2ccc(NC(C)=O)cc2)c(F)c1N1CCCCC1
  A = 106; B = -14; C = /; D = /
9	COc1cccc(NC(=O)c2sc3nc(C)nc(N4CCN(C)CC4)c3c2C)c1
  A = 101; B = /; C = /; D = /
10	O=C(C1CCCCC1)N1CCN(c2cc(C(F)(F)F)nc3ccccc23)CC1
  A = 112; B = 11; C = /; D = /
11	O=C(O)CSCC(=O)N1CCN(c2cc(C(F)(F)F)nc3ccccc23)CC1
  A = 91; B = -48; C = 72; D = 48255
12	O=C(CC1C(=O)N(c2ccc(F)cc2)C(=O)N1Cc1cccnc1)Nc1ccc(F)cc1 (stereo not given)
  A = 101; B = /; C = /; D = /
13	O=C(Nc1ccc(-c2nc3ccccc3o2)cc1)c1ccc(Br)o1
  A = 108; B = -23; C = /; D = /
14	Cc1cc(C)c2oc(-c3cccc(NC(=O)c4ccc(Br)o4)c3)nc2c1
  A = 90; B = -17; C = 76; D = 24189
15	O=C(Nc1cc(-c2nc3ccccc3o2)ccc1Cl)c1ccc(Br)o1
  A = 69*; B = -55; C = 76; D = 31293
16	Cc1cc(C)c2oc(-c3cccc(NC(=O)c4ccco4)c3)nc2c1
  A = 113; B = 3; C = /; D = /
17	Cc1nc2ccccc2n(C)c1=O
  A = 111; B = -30; C = /; D = /
18	Cc1[nH]n(-c2ccccc2)c(=O)c1C(c1ccccc1OCc1ccccc1)c1c(C)[nH]n(-c2ccccc2)c1=O
  A = 107; B = /; C = /; D = /
19	CCOc1cc(C(c2c(C)[nH]n(-c3ccccc3)c2=O)c2c(C)[nH]n(-c3ccccc3)c2=O)ccc1OCc1ccccc1
  A = 82*; B = /; C = 58*; D = 37780
20	CCOc1cc(C(c2c(C)[nH]n(-c3ccccc3)c2=O)c2c(C)[nH]n(-c3ccccc3)c2=O)ccc1OC
  A = 70*; B = /; C = 61; D = 9976*
21	CCOc1ccc(C(c2c(C)[nH]n(-c3ccccc3)c2=O)c2c(C)[nH]n(-c3ccccc3)c2=O)cc1OC
  A = 96; B = 29; C = /; D = /
22	O=C(c1c(-c2ccc(F)cc2)nc2n1CCS2(=O)=O)N1CCCC1
  A = 99; B = -15; C = /; D = /
23	O=S(=O)(Nc1ccc2c(c1)OCO2)c1ccc2ccccc2c1
  A = /; B = 8; C = /; D = /
24	Cc1nc2sccn2c1C(=O)c1ccc(NC(=O)c2ccc(F)cc2)cc1
  A = /; B = 4; C = /; D = /
25	CCOc1cc(/C=C/c2ccccc2OC)cc(=O)c2c(C)oc(C)c12
  A = 95; B = /; C = /; D = /
26	COc1cccc(=O)c2c(C)oc(C)c12
  A = 25*; B = -73; C = 37*; D = 7201*
27	Cc1cc2c(n1-c1ccc(C(=O)O)cc1)CCCC2
  A = 79*; B = 66*; C = 58*; D = 3001*
28	Cc1cc2c(n1-c1ccc(C(=O)N3CCN(c4ccccc4)CC3)cc1)CCCCC2
  A = 101; B = /; C = /; D = /
29	CC1(C)Cc2nc3c(cc2CO1)c(=O)n(Cc1ccccc1)c(=O)n3CC(N)=O
  A = 101; B = -21; C = /; D = /
30	COc1ccc(NS(=O)(=O)c2cc(-c3nc(-c4ccc(Cl)cc4)no3)cs2)cc1OC
  A = 99; B = /; C = /; D = /
31	CN1C(=O)Cc2ccccc21
  A = 101; B = -3; C = /; D = /
32	CN1C(=O)Cc2ccccc2C1=O
  A = 80*; B = 67*; C = 59*; D = 17985*
33	Cn1c(CN2CCN(C(=O)Nc3ccccc3)CC2)nc2cc(C(=O)N3CCCC3)ccc21
  A = 104; B = /; C = /; D = /
34	Cc1cccn2c(=O)cc(COc3cccc(NC(=O)COc4ccccc4)c3)nc12
  A = 95; B = /; C = 79; D = 34512
35	Cc1cccn2c(=O)cc(COc3cccc(NC(=O)COc4ccc(F)cc4)c3)nc12
  A = 99; B = /; C = /; D = /
36	CCN(CC)CCCNc1ncnc2c1cnn2-c1ccc(C)c(C)c1
  A = 107; B = /; C = /; D = /
37	O=C(COc1ccccc1)NCC(c1ccccc1Cl)c1c[nH]c2ccccc12 (stereo not given)
  A = 106; B = -13; C = /; D = /
38	CCn1cc(C(=O)OCC(=O)Nc2ccc(C)c(Cl)c2)c(=O)c2ccc(C)nc21
  A = 104; B = 2; C = /; D = /
39	Cc1cccc(NC(=O)N2CCC(CN3CCCCCC3)CC2)c1C
  A = 106; B = /; C = /; D = /
40	COc1ccccc1C(=O)Nc1nnc(S(=O)(=O)N2CCN(c3ccc(F)cc3)CC2)s1
  A = 101; B = -16; C = /; D = /
41	CCOC(=O)C1=C(C)OC2(O)c3ccccc3C(=O)C12O (stereo not given)
  A = 80*; B = -4; C = 64; D = 48826
42	CCOCCOC(=O)C1=C(C)NC2(O)c3ccccc3C(=O)C12O (stereo not given)
  A = 104; B = /; C = /; D = /
43	CC(C)c1ccc(Nc2nc(NCc3ccco3)nc(N3CCOCC3)n2)cc1
  A = 121; B = /; C = /; D = /
44	COC(=O)c1c(NC(=O)CC2Nc3cc(C)c(C)cc3NC2=O)sc(C)c1C (stereo not given)
  A = 94; B = /; C = 22*; D = 26621
45	COC(=O)c1c(NC(=O)CC2Sc3ccccc3NC2=O)sc(C)c1C (stereo not given)
  A = /; B = 8; C = /; D = /
46	CCc1ccc(N2CC(c3nc4ccccc4[nH]3)CC2=O)cc1 (stereo not given)
  A = 112; B = 7; C = /; D = /
47	CC(=O)Oc1ccc(/C=C2\N=C(c3ccc(-c4ccccc4)cc3)OC2=O)cc1OC(C)=O
  A = 110; B = /; C = /; D = /
48	COc1ccc(-c2c(C#N)c(N)n3c(nc4ccccc43)c2C#N)cc1O
  A = 105; B = /; C = /; D = /
49	COc1ccc(-c2c(C#N)c(N)n3c(nc4ccccc43)c2C#N)cc1OC
  A = 83*; B = -8; C = 63; D = 61581
50	O=C(O)c1cc(O)c(O)c(O)c1
  A = /; B = -20; C = /; D = /

(listing goes on)
Labels used below: A = GIV-Gai inh; B = HCMV NEC inh; C = GIV Gai FP conf; D = GIV-Gai AS conf
51	O=C(O)c1cc(O)[nH]c(=O)c1
  A = 78*; B = 83*; C = 42*; D = 10996*
52	O=C(O)C1CC(=O)N(Cc2ccc(F)cc2)C1 (stereo not given)
  A = 99; B = /; C = /; D = /
53	O=C(O)C1CC(=O)N(Cc2ccc3c(c2)OCO3)C1 (stereo not given)
  A = 51*; B = 30; C = 18*; D = 1816*
54	O=C(/C=C/c1ccccc1)/C=C/c1ccccc1
  A = 80*; B = /; C = 47*; D = 17701*
55	O=C(O)/C=C/c1ccc(/C=C/C(=O)O)cc1
  A = 108; B = -33; C = /; D = /
56	Cc1nnsc1-c1nc(CSc2ccc(Cl)cc2)no1
  A = 98; B = -5; C = /; D = /
57	C=CCC1(/C=C/C)CCCCN1 (stereo not given)
  A = 101; B = -28; C = /; D = /
58	O=C(NCCN1CCCCC1)c1cc2n(n1)CCCN(Cc1ccc(F)cc1)C2=O
  A = 98; B = -19; C = /; D = /
59	Cc1c(/C=N/N=c2\sc3ccccc3n2C)n(C)n(-c2ccccc2)c1=O
  A = /; B = -24; C = /; D = /
60	CN(C)c1ccc(/C=C/C=N/N=c2/sc3ccccc3n2C)cc1
  A = 98; B = -11; C = 86; D = 34665
61	O=C1NC2(O)C(=O)c3ccccc3C2(O)N1 (stereo not given)
  A = 113; B = /; C = /; D = /
62	NC1=NC2(O)c3ccccc3C(=O)C2(O)NN1 (stereo not given)
  A = 76*; B = /; C = 54*; D = 44135

Single values from the entries so far:
`NC1=NC2(O)c3ccccc3C(=O)C2(O)NN1` (stereo not given) in GIV-Gai inh reads 76*
`O=C(NCCN1CCCCC1)c1cc2n(n1)CCCN(Cc1ccc(F)cc1)C2=O` in HCMV NEC inh reads -19
`C=CCC1(/C=C/C)CCCCN1` (stereo not given) in GIV-Gai inh reads 101
`O=C(O)C1CC(=O)N(Cc2ccc(F)cc2)C1` (stereo not given) in GIV-Gai inh reads 99

Sorted by value in GIV Gai FP conf (highest first): some entries from above.
| cpd | canonical_smiles | GIV Gai FP conf |
| --- | --- | --- |
| 60 | CN(C)c1ccc(/C=C/C=N/N=c2/sc3ccccc3n2C)cc1 | 86 |
| 54 | O=C(/C=C/c1ccccc1)/C=C/c1ccccc1 | 47* |
| 53 | O=C(O)C1CC(=O)N(Cc2ccc3c(c2)OCO3)C1 (stereo not given) | 18* |
